According to ChEMBL document CHEMBL3779897, “Novel quinoline-derived mTOR inhibitors with remarkable enzymatic and cellular activities: design, synthesis and biological evaluation” (Medchemcomm, 2016):

How the values were obtained:
Homo sapiens [1] = organism: Homo sapiens; assay: Selectivity ratio, ratio of IC50 for human recombinant PI3Kalpha to IC50 for human mTOR
Homo sapiens [2] = organism: Homo sapiens; assay: Selectivity ratio, ratio of IC50 for PI3Kbeta (unknown origin) to IC50 for human mTOR
Homo sapiens [3] = organism: Homo sapiens; assay: Selectivity ratio, ratio of IC50 for human PI3Kgamma to IC50 for human mTOR
Homo sapiens [4] = organism: Homo sapiens; assay: Selectivity ratio, ratio of IC50 for PI3Kdelta (unknown origin) to IC50 for human mTOR

`CC(=O)Nc1cnc2ccc(-c3cnc4ccccc4c3)cc2c1Nc1ccc(N2CCN(C(C)=O)CC2)c(C(F)(F)F)c1` was tested, and the Ratio IC50 (Homo sapiens [1]) was 50, the Ratio IC50 (Homo sapiens [2]) was over 167 and the Ratio IC50 (Homo sapiens [3]) was 17. The Ratio IC50 (Homo sapiens [4]) was 70.
